Source: patent US6355624B1, “Measurement of plasma volume” (University Wales College of Medicine, priority 1997, dated 2002)

Assay: Volume of distribution of FITC-Elohaes compared with Evans Blue labelled albumin in healthy and endotoxic newborn piglets
Conditions: endotoxic (E. coli) newborn piglets, approx 1.0 mg/kg, individual piglets and mean
Experimental: Seventeen piglets were used in this study. The animals were randomised into two groups, a healthy (control) group and an Escherichia coli (endotoxic) group. The animals of the endotoxic group received a bolus injection of E. coli (1.667 μg/kg), followed by a continuous infusion of E. coli (1.667 μg/kg/hr) throughout the experiment. The control group received the same dose of isotonic saline injection and infusion. Approximately 30 minutes thereafter, a sample of blood (0.6 ml) was obtained from the femoral vein catheter prior to injection of the plasma marker. A volume between 0.5 ml and 1.0 ml of the indicator was injected {of approximately 1.0 mg/kg for both plasma markers} via the femoral vein catheter into the bloodstream. The catheter was then flushed clean with an equal volume of isotonic saline. […] As before, following the withdrawal of each sample, the catheter was flushed with an equal volume of isotonic saline. Samples were obtained at various time intervals over a 6 hour period, the majority were collected within the first hour after administration of the plasma marker. Blood samples were then centrifuged at approximately 2500 r.p.m for 10-15 minutes and plasma/serum withdrawn.

Cc1cc(-c2ccc(/N=N/c3ccc4c(S(=O)(=O)O)cc(S(=O)(=O)O)c(N)c4c3O)c(C)c2)ccc1/N=N/c1ccc2c(S(=O)(=O)O)cc(S(=O)(=O)O)c(N)c2c1O [Evans Blue, reference compound]
VD: 0.1182 L/kg and 0.1115 L/kg

Where “and” joins values, the source holds several entries; their conditions need not be identical. Equal values may be shown once.
